According to patent US6413953B1, “Pt(IV) antitumor agent” (AnorMED Inc., priority 1999, dated 2002):

Test: Aqueous solubility at ambient conditions
Type: physicochemical
Conditions: for (SolPt(IV)/SolPt(II)): solubility ratio to cis-amminedichloro(2-methylpyridine)platinum(II)

Compound: CC(=O)[O][Pt]([Cl])([O]C(C)=O)[O]C(C)=O.Cc1ccccn1.N [Compound D]
- Ratio to Solubility of cis-ammine(2-methylpyridine)Dichloroplatinum (II) (ambient conditions): 114.3
- (SolPt(IV)/SolPt(II)): 114.3

Compound: ammine(chloro)trihydroxo(2-methylpyridine)platinum(IV) [Compound A]
- Aqueous Solubility (ambient conditions): 80 mg/mL
- Ratio to Solubility of bis-butyrato-ammine-(cyclohexylamine)dichloro platinum (IV) (ambient conditions): 400
- Ratio to Solubility of cis-ammine(2-methylpyridine)Dichloroplatinum (II) (ambient conditions): 114.3
- Ratio to Solubility of cisplatin (ambient conditions): 80
- (SolPt(IV)/SolPt(II)): 114.3
